The record followed here is PMC3338918 (2012).

The assay has as its target T1, VEGF-A165 (Homo sapiens, UniProt P15692).
T1 chain: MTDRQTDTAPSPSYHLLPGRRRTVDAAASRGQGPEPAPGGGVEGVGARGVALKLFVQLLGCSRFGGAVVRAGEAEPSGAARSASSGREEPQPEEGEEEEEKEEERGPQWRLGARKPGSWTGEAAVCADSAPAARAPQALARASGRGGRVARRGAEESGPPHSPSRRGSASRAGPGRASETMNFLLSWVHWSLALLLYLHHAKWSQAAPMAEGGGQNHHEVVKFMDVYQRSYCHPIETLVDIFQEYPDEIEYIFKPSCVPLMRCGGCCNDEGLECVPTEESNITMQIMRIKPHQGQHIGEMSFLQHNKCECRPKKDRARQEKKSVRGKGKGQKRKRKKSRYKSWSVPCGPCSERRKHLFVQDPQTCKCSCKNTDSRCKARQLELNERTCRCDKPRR
Briefly: KinExA. (In KinExA the mixture passes briefly over coated beads that capture the unbound partner.)

B1: ranibizumab Fab (antibody, V domains shown)
VH: EVQLVESGGGLVQPGGSLRLSCAASGYDFTHYGMNWVRQAPGKGLEWVGWINTYTGEPTYAADFKRRFTFSLDTSKSTAYLQMNSLRAEDTAVYYCAKYPYYYGTSHWYFDVWGQGTLVTVSS
VL: DIQLTQSPSSLSASVGDRVTITCSASQDISNYLNWYQQKPGKAPKVLIYFTSSLHSGVPSRFSGSGSGTDFTLTISSLQPEDFATYYCQQYSTVPWTFGQGTKVEIKR
Molecule B1 registered a Kd of 0.0206 nM.

Usually Kd stands for the concentration at which binding is half-saturated. Read a low Kd as a tighter complex.
